Data as given in article doi:10.1101/2025.02.07.636106.
This is one part of the list.

target: Nectin-3 (UniProt Q9NQS3); test: co-fractionation; co-fractionation

Listed as a hit, yes:
Low-density lipoprotein receptor, P01130
Sulfate transporter, P50443
VWFA and cache domain-containing protein 1, Q5VU97
